Experimental data as given in article PMC4577729, “7-(Pyrazol-4-yl)-3H-imidazo[4,5-b]pyridine-based derivatives for kinase inhibition: Co-crystallisation studies with Aurora-A reveal distinct differences in the orientation of the pyrazole N1-substituent” (Bioorganic & Medicinal Chemistry Letters, 2015).

Sequences of proteins named here, by UniProt entry; tags and fusion partners are left off. Residues count along the entry.
UniProt O14965, whole entry: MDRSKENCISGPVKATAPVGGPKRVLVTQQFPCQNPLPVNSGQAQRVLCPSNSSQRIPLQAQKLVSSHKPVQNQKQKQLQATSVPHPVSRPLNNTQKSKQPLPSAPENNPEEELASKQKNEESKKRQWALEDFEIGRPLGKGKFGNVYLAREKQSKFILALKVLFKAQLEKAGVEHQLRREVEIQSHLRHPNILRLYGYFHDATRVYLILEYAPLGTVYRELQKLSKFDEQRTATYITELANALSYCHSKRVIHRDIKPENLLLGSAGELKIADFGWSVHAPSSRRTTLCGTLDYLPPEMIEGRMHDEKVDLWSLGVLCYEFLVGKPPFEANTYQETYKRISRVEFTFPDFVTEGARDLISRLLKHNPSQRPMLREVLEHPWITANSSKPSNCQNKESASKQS
UniProt P49760, whole entry: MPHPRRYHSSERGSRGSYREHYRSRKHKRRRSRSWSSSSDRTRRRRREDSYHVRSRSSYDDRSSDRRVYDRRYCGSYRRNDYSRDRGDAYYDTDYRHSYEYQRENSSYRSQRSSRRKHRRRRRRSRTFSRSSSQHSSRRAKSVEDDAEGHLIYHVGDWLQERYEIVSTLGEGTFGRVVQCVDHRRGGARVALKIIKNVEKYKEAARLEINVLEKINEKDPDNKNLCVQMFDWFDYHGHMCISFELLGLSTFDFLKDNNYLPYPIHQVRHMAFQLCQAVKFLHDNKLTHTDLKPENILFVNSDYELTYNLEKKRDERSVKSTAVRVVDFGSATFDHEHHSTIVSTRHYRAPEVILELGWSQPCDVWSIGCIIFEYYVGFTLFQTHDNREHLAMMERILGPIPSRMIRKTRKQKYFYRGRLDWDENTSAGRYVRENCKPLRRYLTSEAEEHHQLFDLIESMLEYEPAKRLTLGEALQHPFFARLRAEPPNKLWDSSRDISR
UniProt P29323, 19-1055 limits assumed: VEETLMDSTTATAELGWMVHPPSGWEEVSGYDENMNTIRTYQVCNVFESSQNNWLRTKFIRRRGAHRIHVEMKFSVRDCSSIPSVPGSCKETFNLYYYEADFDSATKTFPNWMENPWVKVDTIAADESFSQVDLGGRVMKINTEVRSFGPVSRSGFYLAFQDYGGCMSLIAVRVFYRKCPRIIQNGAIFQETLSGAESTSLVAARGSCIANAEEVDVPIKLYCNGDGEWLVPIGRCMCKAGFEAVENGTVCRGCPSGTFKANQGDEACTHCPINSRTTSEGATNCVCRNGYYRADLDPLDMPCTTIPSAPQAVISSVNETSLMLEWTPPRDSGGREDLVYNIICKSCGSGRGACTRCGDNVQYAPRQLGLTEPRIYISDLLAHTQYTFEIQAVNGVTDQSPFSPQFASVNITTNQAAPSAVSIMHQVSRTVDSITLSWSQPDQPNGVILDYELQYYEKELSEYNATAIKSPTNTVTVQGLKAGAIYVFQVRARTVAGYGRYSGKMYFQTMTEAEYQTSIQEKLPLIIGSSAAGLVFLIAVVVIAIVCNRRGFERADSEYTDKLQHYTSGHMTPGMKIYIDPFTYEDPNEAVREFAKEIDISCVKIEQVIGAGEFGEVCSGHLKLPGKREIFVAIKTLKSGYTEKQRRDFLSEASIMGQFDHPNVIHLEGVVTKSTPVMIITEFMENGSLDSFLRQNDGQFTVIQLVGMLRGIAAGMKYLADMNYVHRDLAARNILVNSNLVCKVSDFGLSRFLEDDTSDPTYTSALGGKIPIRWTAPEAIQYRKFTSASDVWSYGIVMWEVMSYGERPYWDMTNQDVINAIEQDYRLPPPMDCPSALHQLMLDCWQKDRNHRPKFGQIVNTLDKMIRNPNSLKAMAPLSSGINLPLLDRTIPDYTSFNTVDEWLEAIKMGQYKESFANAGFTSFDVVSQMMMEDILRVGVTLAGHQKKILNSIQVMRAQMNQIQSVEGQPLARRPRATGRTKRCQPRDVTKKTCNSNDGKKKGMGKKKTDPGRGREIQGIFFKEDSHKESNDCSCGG
UniProt P54764, 20-986 limits assumed: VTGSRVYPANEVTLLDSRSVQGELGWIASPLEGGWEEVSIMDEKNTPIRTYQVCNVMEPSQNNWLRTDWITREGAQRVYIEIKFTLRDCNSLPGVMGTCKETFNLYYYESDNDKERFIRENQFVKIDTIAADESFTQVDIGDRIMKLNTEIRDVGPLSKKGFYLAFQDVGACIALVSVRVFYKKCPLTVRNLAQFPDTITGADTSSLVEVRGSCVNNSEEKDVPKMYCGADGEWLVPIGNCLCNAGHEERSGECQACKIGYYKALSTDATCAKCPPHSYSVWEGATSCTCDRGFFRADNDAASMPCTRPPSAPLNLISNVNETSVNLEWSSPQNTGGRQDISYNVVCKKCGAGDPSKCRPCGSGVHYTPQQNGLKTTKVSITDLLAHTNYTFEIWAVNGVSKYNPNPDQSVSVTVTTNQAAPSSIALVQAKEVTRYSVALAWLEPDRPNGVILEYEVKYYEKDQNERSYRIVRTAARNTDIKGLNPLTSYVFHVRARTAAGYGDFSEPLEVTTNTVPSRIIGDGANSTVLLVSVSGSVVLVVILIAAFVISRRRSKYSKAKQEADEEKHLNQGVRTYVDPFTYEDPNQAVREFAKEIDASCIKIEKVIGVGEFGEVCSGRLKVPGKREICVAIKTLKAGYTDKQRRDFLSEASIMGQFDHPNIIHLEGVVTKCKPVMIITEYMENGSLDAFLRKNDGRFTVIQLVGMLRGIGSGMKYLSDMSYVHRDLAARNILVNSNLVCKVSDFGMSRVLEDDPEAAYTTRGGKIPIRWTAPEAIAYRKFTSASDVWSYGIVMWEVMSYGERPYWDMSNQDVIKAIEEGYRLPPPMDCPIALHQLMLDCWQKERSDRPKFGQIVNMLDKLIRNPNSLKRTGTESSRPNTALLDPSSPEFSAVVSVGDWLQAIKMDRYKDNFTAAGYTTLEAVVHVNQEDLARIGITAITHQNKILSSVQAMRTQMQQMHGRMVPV
UniProt P49841, whole entry: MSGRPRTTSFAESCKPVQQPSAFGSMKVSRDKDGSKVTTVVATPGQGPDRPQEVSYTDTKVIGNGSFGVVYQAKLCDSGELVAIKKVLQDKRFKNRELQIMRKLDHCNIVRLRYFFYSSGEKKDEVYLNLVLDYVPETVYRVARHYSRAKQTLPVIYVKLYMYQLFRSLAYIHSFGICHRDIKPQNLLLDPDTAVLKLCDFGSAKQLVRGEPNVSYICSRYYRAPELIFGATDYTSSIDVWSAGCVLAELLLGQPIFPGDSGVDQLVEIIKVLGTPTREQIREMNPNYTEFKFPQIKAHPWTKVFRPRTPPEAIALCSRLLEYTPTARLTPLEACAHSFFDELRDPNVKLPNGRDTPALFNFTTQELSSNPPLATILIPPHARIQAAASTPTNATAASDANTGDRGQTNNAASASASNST
UniProt Q15303, 26-1308 limits assumed: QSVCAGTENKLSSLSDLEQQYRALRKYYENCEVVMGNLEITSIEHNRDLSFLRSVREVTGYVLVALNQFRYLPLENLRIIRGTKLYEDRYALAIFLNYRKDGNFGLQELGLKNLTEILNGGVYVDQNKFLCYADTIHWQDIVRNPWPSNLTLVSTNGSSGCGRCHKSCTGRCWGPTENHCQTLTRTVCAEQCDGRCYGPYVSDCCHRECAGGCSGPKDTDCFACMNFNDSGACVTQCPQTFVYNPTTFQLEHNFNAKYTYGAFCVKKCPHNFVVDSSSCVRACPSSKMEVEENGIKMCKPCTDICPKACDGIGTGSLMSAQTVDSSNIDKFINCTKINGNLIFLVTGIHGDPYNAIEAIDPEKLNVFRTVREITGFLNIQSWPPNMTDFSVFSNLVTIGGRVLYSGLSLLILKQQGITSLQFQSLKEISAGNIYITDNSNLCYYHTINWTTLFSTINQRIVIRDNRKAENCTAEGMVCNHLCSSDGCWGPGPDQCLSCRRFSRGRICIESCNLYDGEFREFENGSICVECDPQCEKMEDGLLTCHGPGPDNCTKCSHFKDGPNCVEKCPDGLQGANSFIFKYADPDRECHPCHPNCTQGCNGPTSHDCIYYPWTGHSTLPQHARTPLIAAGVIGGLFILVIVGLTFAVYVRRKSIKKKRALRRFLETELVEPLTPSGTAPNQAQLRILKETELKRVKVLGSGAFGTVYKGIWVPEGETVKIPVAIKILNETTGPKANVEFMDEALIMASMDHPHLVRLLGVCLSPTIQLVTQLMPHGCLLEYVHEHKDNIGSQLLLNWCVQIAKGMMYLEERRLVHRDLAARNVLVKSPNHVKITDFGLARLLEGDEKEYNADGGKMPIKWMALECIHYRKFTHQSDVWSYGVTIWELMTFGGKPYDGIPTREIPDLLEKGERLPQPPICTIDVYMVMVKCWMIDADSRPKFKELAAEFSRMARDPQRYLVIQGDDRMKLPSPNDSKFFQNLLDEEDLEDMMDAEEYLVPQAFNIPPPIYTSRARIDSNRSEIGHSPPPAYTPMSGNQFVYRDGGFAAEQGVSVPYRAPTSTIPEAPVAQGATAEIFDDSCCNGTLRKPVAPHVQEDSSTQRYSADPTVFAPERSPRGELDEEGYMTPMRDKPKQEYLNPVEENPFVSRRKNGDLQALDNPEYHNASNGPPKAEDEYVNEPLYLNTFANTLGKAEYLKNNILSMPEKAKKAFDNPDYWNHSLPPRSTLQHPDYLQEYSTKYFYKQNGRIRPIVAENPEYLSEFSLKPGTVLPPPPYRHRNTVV
UniProt Q05513, whole entry: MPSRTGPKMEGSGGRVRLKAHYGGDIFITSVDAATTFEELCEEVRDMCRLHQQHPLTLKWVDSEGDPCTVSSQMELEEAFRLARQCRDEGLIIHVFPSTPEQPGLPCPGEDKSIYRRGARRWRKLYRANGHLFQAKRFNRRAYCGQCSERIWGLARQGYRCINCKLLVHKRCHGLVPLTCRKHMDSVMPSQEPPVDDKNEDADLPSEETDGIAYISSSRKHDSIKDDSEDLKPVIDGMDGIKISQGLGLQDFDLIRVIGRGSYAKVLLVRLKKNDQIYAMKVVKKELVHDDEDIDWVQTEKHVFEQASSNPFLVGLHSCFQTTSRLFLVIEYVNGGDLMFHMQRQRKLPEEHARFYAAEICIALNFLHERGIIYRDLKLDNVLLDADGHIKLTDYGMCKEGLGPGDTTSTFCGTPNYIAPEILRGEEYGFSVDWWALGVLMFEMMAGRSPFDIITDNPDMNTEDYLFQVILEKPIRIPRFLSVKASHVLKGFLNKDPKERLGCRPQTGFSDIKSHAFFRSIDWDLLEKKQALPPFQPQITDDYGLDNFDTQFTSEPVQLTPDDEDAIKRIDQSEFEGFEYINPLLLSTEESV
UniProt Q06187, whole entry: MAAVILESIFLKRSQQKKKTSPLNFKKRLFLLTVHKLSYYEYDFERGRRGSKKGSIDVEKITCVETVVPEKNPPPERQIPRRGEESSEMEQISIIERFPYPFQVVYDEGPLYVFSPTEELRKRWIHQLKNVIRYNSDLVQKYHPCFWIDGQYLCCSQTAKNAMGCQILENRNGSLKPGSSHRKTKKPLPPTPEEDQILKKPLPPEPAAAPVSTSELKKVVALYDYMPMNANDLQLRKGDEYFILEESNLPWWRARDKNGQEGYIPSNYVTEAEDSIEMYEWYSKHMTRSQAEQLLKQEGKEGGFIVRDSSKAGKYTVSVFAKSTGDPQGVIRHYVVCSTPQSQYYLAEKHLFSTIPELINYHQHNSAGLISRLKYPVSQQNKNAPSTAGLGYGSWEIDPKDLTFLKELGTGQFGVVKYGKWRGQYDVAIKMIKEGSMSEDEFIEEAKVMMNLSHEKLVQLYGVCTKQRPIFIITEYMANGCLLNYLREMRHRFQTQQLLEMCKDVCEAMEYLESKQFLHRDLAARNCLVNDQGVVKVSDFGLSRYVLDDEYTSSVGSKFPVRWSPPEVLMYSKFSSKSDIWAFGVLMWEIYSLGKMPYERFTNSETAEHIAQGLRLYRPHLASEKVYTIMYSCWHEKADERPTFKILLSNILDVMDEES
UniProt O43318, 1-303 limits assumed: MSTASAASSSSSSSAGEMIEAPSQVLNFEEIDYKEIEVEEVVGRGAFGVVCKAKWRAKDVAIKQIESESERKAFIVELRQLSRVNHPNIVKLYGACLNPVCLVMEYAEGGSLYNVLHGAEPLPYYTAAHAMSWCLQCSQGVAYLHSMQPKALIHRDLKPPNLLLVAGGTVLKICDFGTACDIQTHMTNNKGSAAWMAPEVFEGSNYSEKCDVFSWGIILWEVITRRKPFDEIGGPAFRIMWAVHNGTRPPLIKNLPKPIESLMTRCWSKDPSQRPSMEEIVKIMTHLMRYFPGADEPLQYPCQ
UniProt Q96GD4, whole entry: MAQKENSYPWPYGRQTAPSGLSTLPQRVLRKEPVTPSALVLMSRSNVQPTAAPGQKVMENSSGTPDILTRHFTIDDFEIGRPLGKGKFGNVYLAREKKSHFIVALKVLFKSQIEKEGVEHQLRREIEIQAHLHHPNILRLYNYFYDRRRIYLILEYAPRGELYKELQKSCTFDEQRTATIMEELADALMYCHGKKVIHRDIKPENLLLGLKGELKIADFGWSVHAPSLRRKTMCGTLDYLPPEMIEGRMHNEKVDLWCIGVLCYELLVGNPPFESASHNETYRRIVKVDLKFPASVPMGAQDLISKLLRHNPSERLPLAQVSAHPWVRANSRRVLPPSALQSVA

Tests used:
Aurora A [1] = biological target: T1, Aurora A (Homo sapiens, UniProt O14965); assay: Aurora-A microfluidic kinase assay; settings: read-out: Aurora-A IC50; biochemical; mean of two determinations or mean ±SD for n > 2
[2] = Mouse liver microsomal stability; type: in vitro ADME; settings: percentage of compound metabolised after a 30 min incubation, mouse liver microsomes
[3] = Human liver microsomal stability; type: in vitro ADME; settings: percentage of compound metabolised after a 30 min incubation, human liver microsomes
[4] = tested on: SW620 human colon carcinoma cells; assay: SW620 cell growth inhibition; settings: read-out: GI50 SW620, 72 h incubation
CLK2 = CLK2 (Homo sapiens, UniProt P49760); assay: Kinase selectivity profiling; settings: 1 µM, assay duplicates
DAPK1 = DAPK1 (Homo sapiens, UniProt P53355); assay: Kinase selectivity profiling; settings: 1 µM, assay duplicates
EPH-B2 = EPH-B2 (Homo sapiens, UniProt P29323); assay: Kinase selectivity profiling; settings: 1 µM, assay duplicates
EF2K = EF2K (Homo sapiens, UniProt O00418); assay: Kinase selectivity profiling; type: biochemical; settings: 1 µM, assay duplicates
Description: (§1) [20] Kinase selectivity profiling for compounds 7a, 7d, 14d and 14g was carried out at the International Centre for Protein Kinase Profiling, Division of Signal Transduction Therapy, University of Dundee.
(§2) Table S1: Kinase selectivity profiling of compounds 7a and 7d in a 102-kinase panel screened at a concentration of 1 µM.
(§3) Table S2: Kinase selectivity profiling of compounds 14d and 14g in a 105-kinase panel screened at a concentration of 1 µM.

EPH-A4 = EPH-A4 (Homo sapiens, UniProt P54764); assay: Kinase selectivity profiling; type: biochemical; settings: 1 µM, assay duplicates
Description: as §1, §2, §3

GSK3b = GSK3b (Homo sapiens, UniProt P49841); assay: Kinase selectivity profiling; type: biochemical; settings: for GSK3β inhibition: 1 μM; for GSK3b % activity remaining: 1 µM, assay duplicates
Description: as §1, §2, §3

HER4 = HER4 (Homo sapiens, UniProt Q15303); assay: Kinase selectivity profiling; type: biochemical; settings: 1 µM, assay duplicates
Description: as §1, §2, §3

HIPK3 = HIPK3 (Homo sapiens, UniProt Q9H422); assay: Kinase selectivity profiling; type: biochemical; settings: 1 µM, assay duplicates
Description: as §1, §2, §3

JNK2 = JNK2 (Homo sapiens, UniProt P45984); assay: Kinase selectivity profiling; type: biochemical; settings: 1 µM, assay duplicates
Description: as §1, §2, §3

PIM3 = PIM3 (Homo sapiens, UniProt Q86V86); assay: Kinase selectivity profiling; type: biochemical; settings: 1 µM, assay duplicates
Description: as §1, §2, §3

PKCz = PKCz (Homo sapiens, UniProt Q05513); assay: Kinase selectivity profiling; type: biochemical; settings: 1 µM, assay duplicates
Description: as §1, §2, §3

PKD1 = PKD1 (Homo sapiens, UniProt Q15139); assay: Kinase selectivity profiling; type: biochemical; settings: 1 µM, assay duplicates
Description: as §1, §2, §3

PRAK = PRAK (Homo sapiens, UniProt Q8IW41); assay: Kinase selectivity profiling; type: biochemical; settings: 1 µM, assay duplicates
Description: as §1, §2, §3

p38b MAPK = p38b MAPK (Homo sapiens, UniProt Q15759); assay: Kinase selectivity profiling; type: biochemical; settings: 1 µM, assay duplicates
Description: as §1, §2, §3

AMPK = assay: Kinase selectivity profiling; type: biochemical; settings: 1 µM, assay duplicates
BTK = BTK (Homo sapiens, UniProt Q06187); assay: Kinase selectivity profiling; type: biochemical; settings: 1 µM, assay duplicates
GCK = GCK (Homo sapiens, UniProt Q12851); assay: Kinase selectivity profiling; type: biochemical; settings: 1 µM, assay duplicates
IRR = IRR (Homo sapiens, UniProt P14616); assay: Kinase selectivity profiling; type: biochemical; settings: 1 µM, assay duplicates
JNK1 = JNK1 (Homo sapiens, UniProt P45983); assay: Kinase selectivity profiling; type: biochemical; settings: 1 µM, assay duplicates
PAK6 = PAK6 (Homo sapiens, UniProt Q9NQU5); assay: Kinase selectivity profiling; type: biochemical; settings: 1 µM, assay duplicates
RSK1 = RSK1 (Homo sapiens, UniProt Q15418); assay: Kinase selectivity profiling; type: biochemical; settings: 1 µM, assay duplicates
TAK1 = TAK1 (Homo sapiens, UniProt O43318); assay: Kinase selectivity profiling; type: biochemical; settings: 1 µM, assay duplicates
Aurora A [5] = biological target: T1, Aurora A; assay: Aurora-A autophosphorylation at T288 in HeLa cells; settings: read-out: p-T288 IC50 (Aurora-A autophosphorylation)
Aurora B = Aurora B (Homo sapiens, UniProt Q96GD4); assay: Histone H3 phosphorylation at S10 in HeLa cells; settings: read-out: p-HH3 IC50 (histone H3 phosphorylation at S10)
[6] = Protein binding in microsomal incubations (MLM)
[7] = Protein binding in microsomal incubations (HLM)
[8] = In vivo mouse pharmacokinetic profiling
[9] = Mouse plasma protein binding
Kinetic solubility = settings: phosphate buffer, pH = 6.8

Structure (SMILES)	IC50 (Aurora A [1]) [nM]	GI50 [4] [nM]	EF2K % activity remaining (EF2K) [%]	EPH-A4 % activity remaining (EPH-A4) [%]	GSK3β inhibition (GSK3b)	GSK3b % activity remaining (GSK3b) [%]	HER4 % activity remaining (HER4) [%]	HIPK3 % activity remaining (HIPK3) [%]	JNK2 % activity remaining (JNK2) [%]	PIM3 % activity remaining (PIM3) [%]	PKCz % activity remaining (PKCz) [%]	PKD1 % activity remaining (PKD1) [%]	PRAK % activity remaining (PRAK) [%]	p38b MAPK % activity remaining (p38b MAPK) [%]	also measured
CNCc1cccc(Cn2cc(-c3c(Cl)cnc4[nH]c(-c5cn(C)nc5C)nc34)cn2)c1	18	340	92	29	≥ 80%	2	43	57	35	34	82	82	110	74	MLM % met/30 min [2]: 53%; HLM % met/30 min [3]: 38%; CLK2 % activity remaining (CLK2): 3%; DAPK1 % activity remaining (DAPK1): 12%; EPH-B2 % activity remaining (EPH-B2): 70%; AMPK % activity remaining (AMPK): 18%; BTK % activity remaining (BTK): 13%; GCK % activity remaining (GCK): 51%; IRR % activity remaining (IRR): 23%; JNK1 % activity remaining (JNK1): 26%; PAK6 % activity remaining (PAK6): 65%; RSK1 % activity remaining (RSK1): 20%; TAK1 % activity remaining (TAK1): 24%
Cc1nn(C)cc1-c1nc2c(-c3cnn(Cc4ccc(Cl)cc4)c3)c(Cl)cnc2[nH]1	190	260	101	90	greater than 80%	3	104	9	49	80	86	92	89	100	IC50 (Aurora A [5]): 40 nM; IC50 (Aurora B): 330 nM; percentage unbound in MLM [6]: 0.50%; percentage unbound in HLM [7]: 0.50%; oral bioavailability [8]: 16%; mouse plasma protein binding [9]: > 99.9%; kinetic solubility (Kinetic solubility): < 0.1 µg/mL
